# Laboratory results as given in US11617748B2, “Meclozine derivatives and diclazuril derivatives for use in the prevention and/or the treatment of disorders associated to the inflammation induced by P. acnes” (priority 2016, dated 2023).
# System: primary human keratinocytes (NHDK)
# Test: MTT viability of NHDK in the in vitro psoriasis-like model (M5)
# Conditions: NHDK + M5, 48 h; JAK inhibitor 6.25 μM; meclozine, diclazuril 0.39 to 12.5 μM
# Experimental: Cell culture, pretreatment and stimulation. The immortalized human keratinocyte cell line HaCaT, fibroblast MRC5 were grown in Dulbecco's modified Eagle's medium-Glutamax-I (DMEM) with 1 mM sodium pyruvate. The immortalized human monocytic cell line ThP1 was grown in Roswell Park Memorial Institute 1640 Medium-Glutamax-I (RPMI). DMEM and RPMI were supplemented with 0.1% and 10% heat-inactivated fetal calf serum (Invitrogen), and an antibiotic/antimycotic solution (10 U/ml Pencillin, 10 μg/ml Streptomycin, 0.25 μg/ml Amphoterin) at 37° C. in humidified atmosphere containing 5% CO2 as described (Life Technologie). Primary human keratinocytes (NHDK) and fibroblast (HDF) were grown in the KGM-Gold and in FGM-2 Bullet Kit, respectively, as described by the manufacturer (Lonza). The immortalized cell lines were routinely tested to assess the absence of Mycoplasma infection. Cells, cultivated in 6- or 96-well polystyrene plates, were pretreated with appropriate molecule solution for 1 to 48 h at 37° C. in the dark at the appropriate concentration. Then, for stimulation, cells were incubated for 15 min to 24 h with the P. acnes suspension adjusted at the appropriate concentration at 37° C. in 5% CO2. […]
# Cell viability assays. […] After thorough mixing, the absorbance was measured at 540 nm.
substance,measurement,value
Jak Inhibitor I,decrease of the cell viability (MTT),24.4%
